Legend:
hERG channel = hERG channel (Homo sapiens, UniProt Q12809)
human Nav1.5 = human Nav1.5 (Homo sapiens, UniProt Q14524); experiment: in vitro; type: cell-based

By UniProt entry, the sequences of proteins in these tests, tags left out. Where a name states a change or a piece, a line headed by the entry shows the natural chain unless it says otherwise.
UniProt Q12809: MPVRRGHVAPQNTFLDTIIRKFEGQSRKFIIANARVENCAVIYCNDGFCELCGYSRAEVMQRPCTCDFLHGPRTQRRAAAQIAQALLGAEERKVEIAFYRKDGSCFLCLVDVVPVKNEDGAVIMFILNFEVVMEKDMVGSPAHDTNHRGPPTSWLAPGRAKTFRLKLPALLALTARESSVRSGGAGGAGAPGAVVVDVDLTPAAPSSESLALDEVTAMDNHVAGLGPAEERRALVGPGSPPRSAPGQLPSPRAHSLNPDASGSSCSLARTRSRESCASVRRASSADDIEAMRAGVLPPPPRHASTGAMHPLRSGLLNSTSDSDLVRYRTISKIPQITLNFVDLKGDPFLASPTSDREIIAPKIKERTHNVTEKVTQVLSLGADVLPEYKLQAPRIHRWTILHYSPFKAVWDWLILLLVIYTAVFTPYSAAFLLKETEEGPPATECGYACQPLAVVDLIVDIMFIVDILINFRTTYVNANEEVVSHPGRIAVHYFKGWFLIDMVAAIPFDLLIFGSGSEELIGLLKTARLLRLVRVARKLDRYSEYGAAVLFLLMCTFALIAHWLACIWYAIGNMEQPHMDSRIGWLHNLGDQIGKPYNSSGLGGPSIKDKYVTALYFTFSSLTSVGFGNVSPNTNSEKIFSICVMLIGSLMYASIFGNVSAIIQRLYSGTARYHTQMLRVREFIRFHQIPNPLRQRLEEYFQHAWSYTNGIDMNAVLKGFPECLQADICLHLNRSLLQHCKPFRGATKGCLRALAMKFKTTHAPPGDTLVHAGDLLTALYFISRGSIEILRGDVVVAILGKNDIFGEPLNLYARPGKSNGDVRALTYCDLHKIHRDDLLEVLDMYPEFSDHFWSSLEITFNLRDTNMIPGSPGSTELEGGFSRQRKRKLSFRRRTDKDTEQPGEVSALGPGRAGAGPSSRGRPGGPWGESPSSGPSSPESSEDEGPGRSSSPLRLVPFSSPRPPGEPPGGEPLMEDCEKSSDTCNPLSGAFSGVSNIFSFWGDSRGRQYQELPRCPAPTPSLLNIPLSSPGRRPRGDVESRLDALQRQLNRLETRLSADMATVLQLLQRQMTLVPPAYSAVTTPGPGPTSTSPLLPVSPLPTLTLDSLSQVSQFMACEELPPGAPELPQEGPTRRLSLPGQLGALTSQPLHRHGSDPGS
UniProt Q14524, whole entry: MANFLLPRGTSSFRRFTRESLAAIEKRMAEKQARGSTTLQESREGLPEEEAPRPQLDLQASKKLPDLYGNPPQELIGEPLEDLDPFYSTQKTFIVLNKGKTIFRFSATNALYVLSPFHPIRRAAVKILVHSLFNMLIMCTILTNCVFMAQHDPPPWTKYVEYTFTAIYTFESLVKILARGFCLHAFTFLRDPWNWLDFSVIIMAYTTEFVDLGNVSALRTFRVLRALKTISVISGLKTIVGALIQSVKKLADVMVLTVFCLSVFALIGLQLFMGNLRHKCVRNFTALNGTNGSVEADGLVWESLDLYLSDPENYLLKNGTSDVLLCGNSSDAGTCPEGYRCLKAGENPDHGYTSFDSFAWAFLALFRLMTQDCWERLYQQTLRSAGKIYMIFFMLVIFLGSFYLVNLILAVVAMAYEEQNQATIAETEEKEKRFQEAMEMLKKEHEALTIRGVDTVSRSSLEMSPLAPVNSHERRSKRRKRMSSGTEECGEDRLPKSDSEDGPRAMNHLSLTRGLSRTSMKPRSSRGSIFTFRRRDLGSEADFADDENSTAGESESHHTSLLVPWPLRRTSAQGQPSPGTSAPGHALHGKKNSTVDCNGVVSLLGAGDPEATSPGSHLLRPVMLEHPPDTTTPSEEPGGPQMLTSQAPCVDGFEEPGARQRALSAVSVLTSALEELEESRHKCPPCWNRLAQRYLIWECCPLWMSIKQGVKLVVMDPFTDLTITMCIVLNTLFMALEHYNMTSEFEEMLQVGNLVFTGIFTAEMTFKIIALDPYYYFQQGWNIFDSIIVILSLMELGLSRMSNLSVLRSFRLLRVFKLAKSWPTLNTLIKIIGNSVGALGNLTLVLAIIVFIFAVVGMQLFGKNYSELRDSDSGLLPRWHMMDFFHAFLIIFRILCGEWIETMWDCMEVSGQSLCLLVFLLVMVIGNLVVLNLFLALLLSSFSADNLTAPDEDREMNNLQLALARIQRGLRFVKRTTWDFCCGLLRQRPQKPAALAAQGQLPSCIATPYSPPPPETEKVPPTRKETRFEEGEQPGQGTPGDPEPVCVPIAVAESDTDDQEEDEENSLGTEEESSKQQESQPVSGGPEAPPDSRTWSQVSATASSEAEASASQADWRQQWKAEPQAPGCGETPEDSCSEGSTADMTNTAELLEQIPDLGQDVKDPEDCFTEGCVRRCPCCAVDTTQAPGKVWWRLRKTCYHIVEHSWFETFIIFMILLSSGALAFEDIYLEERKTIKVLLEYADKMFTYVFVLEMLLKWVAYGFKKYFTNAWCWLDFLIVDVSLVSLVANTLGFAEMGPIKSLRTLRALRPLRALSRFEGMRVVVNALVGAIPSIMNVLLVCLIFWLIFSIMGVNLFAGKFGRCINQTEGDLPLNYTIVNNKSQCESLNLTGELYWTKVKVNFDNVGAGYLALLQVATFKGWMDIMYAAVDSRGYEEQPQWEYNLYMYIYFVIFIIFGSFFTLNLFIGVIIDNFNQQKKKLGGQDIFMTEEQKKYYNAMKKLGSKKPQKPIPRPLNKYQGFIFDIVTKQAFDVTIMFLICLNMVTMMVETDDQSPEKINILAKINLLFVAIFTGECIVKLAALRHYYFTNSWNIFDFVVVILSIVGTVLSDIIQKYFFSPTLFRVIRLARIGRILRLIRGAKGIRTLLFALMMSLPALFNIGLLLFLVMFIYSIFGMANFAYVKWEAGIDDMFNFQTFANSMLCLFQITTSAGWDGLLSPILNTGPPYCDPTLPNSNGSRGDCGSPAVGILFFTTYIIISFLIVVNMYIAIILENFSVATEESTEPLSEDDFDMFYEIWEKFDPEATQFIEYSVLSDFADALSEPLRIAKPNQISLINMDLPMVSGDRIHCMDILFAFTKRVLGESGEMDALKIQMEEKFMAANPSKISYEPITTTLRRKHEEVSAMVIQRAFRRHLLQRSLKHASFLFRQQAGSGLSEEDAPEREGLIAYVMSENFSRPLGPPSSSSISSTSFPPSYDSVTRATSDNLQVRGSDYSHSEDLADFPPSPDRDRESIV

SMILES	IC50 (hERG channel)	IC50 (human Nav1.5; pH 7.4)	IC50 (human Nav1.5; pH 7.4, hNav1.5 IC50)
CSCC[C@@H]1NC(=O)[C@H](Cc2c[nH]c3ccccc23)NC(=O)[C@H](CCCCN)NC(=O)[C@H](CCC(N)=O)NC(=O)[C@@H](NC(=O)[C@@H](N)Cc2c[nH]cn2)CSSC[C@@H]2NC(=O)[C@@H]3CSSC[C@@H](C(=O)N[C@@H](CCCNC(=N)N)C(=O)N[C@@H](CCCCN)C(=O)N[C@@H](CCC(=O)O)C(=O)N[C@@H](CC(C)C)C(=O)N[C@@H](CC(C)C)C(N)=O)NC(=O)[C@H](Cc4c[nH]c5ccccc45)NC(=O)[C@H](CC(C)C)NC(=O)[C@H](CCCNC(=N)N)NC(=O)[C@H](CSSC[C@H](NC(=O)[C@H]([C@@H](C)O)NC(=O)[C@H](CCC(N)=O)NC1=O)C(=O)N[C@@H](CC(=O)O)C(=O)N[C@@H](CCCCN)C(=O)N[C@@H](CC(=O)O)C(=O)N[C@@H](CCCNC(=N)N)C(=O)N[C@@H](CCCCN)C(=O)N3)NC(=O)[C@H](CCCNC(=N)N)NC(=O)[C@H](Cc1ccccc1)NC(=O)CNC(=O)[C@H](CCC(=O)O)NC2=O [PTx2-3258]	1.86 µM		
CSCC[C@@H]1NC(=O)[C@H](Cc2c[nH]c3ccccc23)NC(=O)[C@H](CCCCN)NC(=O)[C@H](CCC(N)=O)NC(=O)[C@@H](NC(=O)[C@@H](N)CCC(N)=O)CSSC[C@@H]2NC(=O)[C@@H]3CSSC[C@@H](C(=O)N[C@@H](CCCNC(=N)N)C(=O)N[C@@H](CCCCN)C(=O)N[C@@H](CCC(=O)O)C(=O)N[C@@H](CC(C)C)C(=O)N[C@@H](CC(C)C)C(N)=O)NC(=O)[C@H](Cc4c[nH]c5ccccc45)NC(=O)[C@H](CC(C)C)NC(=O)[C@H](CCCNC(=N)N)NC(=O)[C@H](CSSC[C@H](NC(=O)[C@H]([C@@H](C)O)NC(=O)[C@H](CCC(N)=O)NC1=O)C(=O)N[C@@H](CC(=O)O)C(=O)N[C@@H](CCCCN)C(=O)N[C@@H](CC(=O)O)C(=O)N[C@@H](CCCNC(=N)N)C(=O)N[C@@H](CCCCN)C(=O)N3)NC(=O)[C@H](CCCNC(=N)N)NC(=O)[C@H](Cc1ccccc1)NC(=O)CNC(=O)[C@H](CCC(=O)O)NC2=O [PTx2-3127]		137 µM	> 130 µM

From US20260001922A1, “PEPTIDES TARGETING SODIUM CHANNELS TO TREAT PAIN” (priority 2022, published 2026)
